Binding of CDR-mutated scFvs to a peptide of the spike HR2 region

The measurements come from Li et al. 2023 (doi:10.1038/s41467-023-39022-2) through the FLAb antibody collection.

Binding partner: SARS-CoV-2 spike HR2 peptide, sequence PDVDLGDISGINAS.

Ab-14 is the parent antibody, in scFv form: VH, then three GGGGS repeats, then VL. The light chain is unchanged in all variants.
VH: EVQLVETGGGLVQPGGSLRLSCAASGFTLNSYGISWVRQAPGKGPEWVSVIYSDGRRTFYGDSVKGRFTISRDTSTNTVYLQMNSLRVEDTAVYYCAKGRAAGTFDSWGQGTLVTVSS
VL: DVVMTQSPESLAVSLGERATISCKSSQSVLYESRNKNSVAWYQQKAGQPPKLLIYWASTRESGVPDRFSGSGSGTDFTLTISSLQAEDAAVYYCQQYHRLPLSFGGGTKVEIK

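The parent was found by panning a naive human phage display library on the peptide. The variants were designed computationally from a first round of random CDR variants and then made and measured. Group labels follow the data file (Ctrl: baseline library sampled from a position-specific scoring matrix, with some repeated check sequences; Rand: our label for a block that the file lists under HC and that is probably the random mutants of the ten best first-round binders; En: ensemble of fine-tuned language models; GP: Gaussian process model; GPLM: also part of the Gaussian process libraries; HC: hill climbing; Gen: genetic algorithm; Gibbs: Gibbs sampling; a sequence that several methods proposed may carry one label only). The assay is AlphaSeq: two haploid yeast populations carry antibody and antigen on their surface. Pairs that bind mate more often; barcode pairs of the diploids are counted by sequencing. The ratio of observed to expected reads was calibrated, replicate by replicate, on BCL2-family standards whose Kd was known from biolayer interferometry. Each pool was mated in six replicate cultures.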

Each variant is given by its three heavy chain CDRs, as the data file delimits them; those of the parent are GFTLNSYGIS, VIYSDGRRTFYGDSVK, GRAAGTFDS.
Affinities are written as log10 Kd with Kd in nM; a lower number is a better binder.
Replicates are averaged; those with no signal do not enter the mean.
An entry "nd" has no value in the source: the pair was not observed among the diploids in that replicate. This suggests poor binding but is not conclusive.
The authors averaged sequences with at least three values out of six and counted those with two or fewer as poor binders.
Background: pairings of all heavy chain designs with three empty control strains gave a value in 1% of cases (median 2.08, 5th percentile 0.84). Values in that range, when seen in few replicates, are hard to tell from nonspecific mating. For each scFv, signals with the empty controls are counted beside the result, with their mean in brackets.
Values of this round are not directly comparable with the first-round values of the same sequences.
Of ten entries with the parent sequence, four were seen in most replicates (averages 0.34 to 2.37), three in one and three in none, so single entries are noisy.

CDR-H1,CDR-H2,CDR-H3,group,"log10 Kd, replicates","log10 Kd (nM), mean",control signals
GFDLDEYGIS,VIYADGKRTFYADSVK,GSNAGTFDM,En_HC,-0.14 / -0.34 / -0.39 / -0.21 / -0.36 / -0.26,-0.28,0/18
GFDLNEYGIS,VIYADGRRTFYSDSVK,GAVAGTFDL,En_HC,-0.80 / -0.86 / -0.57 / -0.45 / -0.37 / -0.14,-0.53,0/18
GFDLNEYGIS,VIYADGQRTAYTDSVK,GNTAGTFDV,En_Gen,-0.05 / -0.27 / -0.47 / -0.43 / -0.41 / -0.31,-0.32,0/18
GFSLDEMGIS,VIYADGQRTAYQASVK,GQNGVVVFV,En_Gibbs,nd / nd / nd / nd / nd / nd,nd,0/18
GDTLNSYGIS,VIYSDGRRTAYGDSVK,GRAAGTFDS,Ctrl,0.29 / 0.51 / 0.08 / 3.20 / 0.71 / 0.26,0.84,0/18
GFTLQSYGIS,VIYSDGRRTFYGDSVK,GRAAGNFDS,Ctrl,nd / nd / nd / nd / nd / nd,nd,0/18
GFSLNEYGIS,VIYSDGRRTFYMDSVK,GQAAGTFDS,GPLM_Gen,0.54 / 0.78 / 0.47 / 0.27 / 0.36 / 0.38,0.46,0/18
GFDLDEYGIS,VIYADGRRTAYSDSVK,GETAGTFDQ,En_Gen,-0.37 / -0.16 / -0.41 / -0.59 / -0.53 / -0.29,-0.39,0/18
GFTLNSYGIS,VIYSDGRRTFYGDSVK,GRAAGYFDN,Ctrl,nd / 2.40 / 1.34 / nd / 3.21 / 2.86,2.45,0/18
GFDLNEYGIS,VIYADGMRTAYSDSVK,GTNAGTFDQ,En_Gen,-0.28 / -0.29 / -1.24 / -1.06 / -0.90 / -0.44,-0.70,1/18 (1.51)
GFDLNSYGIS,VIYSDGRRTFYKDSVK,GQLAGTFDS,GP_HC,0.80 / 0.27 / 0.15 / 0.34 / 0.22 / 0.07,0.31,1/18 (2.47)
GNELDEYGIS,VIYADGKRTAYSDDVK,DVGSNTLVD,En_Gibbs,nd / nd / nd / nd / nd / nd,nd,1/18 (1.96)
GFELNSYGIS,VIYSDGRRTFYSDSVK,GRAAVTFDS,GP_HC,nd / 2.09 / 1.43 / 1.95 / 2.82 / 1.60,1.98,0/18
GNNLNSYGIS,VIYSDGRRTFYGDSVK,GRAAGTFDS,Ctrl,nd / nd / nd / nd / nd / 2.85,2.85,0/18
GFQLESYGIS,VIYSDGRRTFYHDSVK,GRAAGTFDS,GP_Gibbs,0.93 / nd / 0.70 / 1.79 / 1.51 / 1.00,1.19,0/18
GFTLNEYGIS,VIYSDGRRTMYLDSVK,GRFAGTFDS,GP_HC,2.11 / 1.29 / 1.49 / 2.88 / 1.44 / 1.51,1.78,0/18
GFTLNEYGIS,VIYSDGRRTMYTDSVK,GRLAGTFDS,GP_HC,0.40 / -0.01 / -0.01 / 0.31 / 0.55 / -0.04,0.20,0/18
GFTLNSDGIS,VIYSDGRRTFYDDSGK,GQLAGTFDS,Rand,nd / nd / nd / nd / nd / nd,nd,0/18
GFTLNSYGIS,VIYSDGRRTFYKDSVK,GRAGGTFDS,Rand,2.71 / 2.26 / nd / 2.82 / nd / nd,2.59,0/18
GFDLNTYGIS,VIYSDGRRTFYADSVK,GQTAGTFDS,GP_Gibbs,1.50 / 1.04 / 0.78 / 0.96 / 0.87 / 0.81,0.99,2/18 (2.24)
LFTLNDYGIS,VIYSDGRRTQYIDSVK,GRAAGTFDS,GPLM_HC,nd / nd / nd / nd / nd / nd,nd,0/18
GFTLDSYGIS,VIYSDGRRTFYKDSVK,GRLAGTFDS,GP_HC,nd / nd / nd / nd / nd / nd,nd,1/18 (1.28)
GFTLNSYGIS,VIYSDGRRTFYSDSVK,GTAGGTFDT,GPLM_HC,2.02 / 1.82 / 1.75 / 1.20 / 1.48 / 1.37,1.61,1/18 (1.97)
GFTLNSYGIS,VIYSDGKRTFYSDNVK,GQAAGTFDS,GP_Gibbs,0.15 / 0.26 / 0.43 / -0.03 / 0.25 / 0.45,0.25,1/18 (1.95)
GFNLDEYGIS,VIYADGRRTFYADSVK,GNHGGTFDT,En_HC,2.78 / 1.00 / 1.02 / 1.18 / 1.28 / 1.38,1.44,0/18
GFDLNEYGIS,VIYADGVRTAYSDSVK,GENAGTFDV,En_Gen,-0.31 / -0.37 / -0.37 / -0.52 / 0.05 / -0.23,-0.29,0/18
GFDLNEYGIS,VIYADGRRTFYADSVK,GNIAGTFNS,En_HC,-0.55 / -0.78 / -0.84 / -0.99 / -0.90 / -0.63,-0.78,1/18 (1.97)
GFTLNSYGIS,VIYSDGRRNFYGDSVK,ERAAGTFDS,Ctrl,nd / nd / nd / nd / nd / nd,nd,0/18
GFTLNSYGIS,VIYADGRRTFYGDSVK,GAAAGTFDS,GPLM_Gen,0.08 / 0.10 / -0.32 / 0.25 / 0.42 / -0.29,0.04,0/18
GFTLNSYGIS,VIYADGRRHFYGDSVK,GEAAGTFDS,GP_HC,-0.19 / -0.02 / -0.22 / -0.08 / 0.14 / 0.43,0.01,0/18
GFTLNSYGIS,VIYSDGRRTFYGDSVK,GQAAGTFSS,Ctrl,nd / nd / nd / nd / 2.72 / nd,2.72,0/18
GFTPNSYGIS,VIYSDGRRTFYGDSVD,GRGAGTFDS,Ctrl,nd / nd / nd / nd / nd / nd,nd,0/18
GFDLNEYGIS,VIYADGRRTFYKDSVK,GENGGTFDV,En_HC,0.03 / -0.22 / -0.07 / -0.47 / -0.34 / -0.14,-0.20,0/18
GFDLNSYGIS,VIYSDGRRTFYADDVK,GRQAGTFDS,GP_Gen,0.63 / 0.20 / 0.07 / 0.04 / -0.05 / 0.42,0.22,1/18 (1.92)
GFQLNEYGIS,VIYSDGWRTFYGDSVK,GRTAGTFDS,GP_Gen,0.83 / 0.86 / 1.07 / 1.37 / 0.93 / 1.07,1.02,1/18 (2.49)
GFDLNEYGIS,VIYADGMRTQYIDSVK,GNIAGTFDV,En_HC,-0.27 / -0.51 / -0.43 / -0.51 / -0.51 / -0.22,-0.41,0/18
GFRLNSYGIS,VIYSDGRREFYGDSVK,GRDSGTFDS,Ctrl,nd / nd / nd / nd / nd / nd,nd,0/18
GFTLESYGIS,VIYSDGRRTFYKDSVK,GRAAGTFDS,GPLM_Gen,0.85 / 1.11 / 1.47 / nd / nd / 1.33,1.19,0/18
GFDLNSYGIS,VIYSDGRRTFYDDDVK,GRTAGTFDS,GP_Gibbs,0.03 / 0.06 / -0.04 / -0.48 / -0.07 / 0.04,-0.08,0/18
GFDLNEYGIS,VIYADGMRTFYADSVK,GETAGTFDT,En_Gen,-0.23 / -0.80 / -0.58 / -0.97 / -0.94 / -0.64,-0.69,0/18
GFTLNSYGIS,VIYSDGRRTFYDDNVK,GQLAGTFDS,GPLM_HC,nd / nd / nd / nd / nd / nd,nd,0/18

The last 4 entries again:

CDR-H1,CDR-H2,CDR-H3,group,"log10 Kd, replicates","log10 Kd (nM), mean",control signals
GFTLESYGIS,VIYSDGRRTFYKDSVK,GRAAGTFDS,GPLM_Gen,0.85 / 1.11 / 1.47 / nd / nd / 1.33,1.19,0/18
GFDLNSYGIS,VIYSDGRRTFYDDDVK,GRTAGTFDS,GP_Gibbs,0.03 / 0.06 / -0.04 / -0.48 / -0.07 / 0.04,-0.08,0/18
GFDLNEYGIS,VIYADGMRTFYADSVK,GETAGTFDT,En_Gen,-0.23 / -0.80 / -0.58 / -0.97 / -0.94 / -0.64,-0.69,0/18
GFTLNSYGIS,VIYSDGRRTFYDDNVK,GQLAGTFDS,GPLM_HC,nd / nd / nd / nd / nd / nd,nd,0/18